Source: patent US20040047866A1, “Immunomodulatory methods using carbohydrate antigens” (President and Fellows of Harvard College, priority 2002, published 2004)

Columns and labels:
B220+ cells = assay: B7-1 and B7-2 expression on B220+ cells (flow cytometry); assay type: cell-based; settings: freshly isolated splenocytes of IP immunized mice
Protocol: In flat-bottom 24-well culture plates (Corning), suspensions of 2.5×10^6 cells per ml were cultured with ConA (2 μg/ml) or without restimulation at 37° C. in supplemented RPMI 1640 medium as described above. 24, 72 and 120 hrs later, the cell cultures were then centrifuged, and the culture supernatants were harvested and kept frozen (−80° C.) until assayed. Pelleted cells were resuspended then stained with mAbs coupled to FITC or PE for immunofluorescent staining. IL-2, IL-4, IL-5, IL-10 and IFN-γ levels in supernatants from ConA-stimulated or unstimulated splenocytes were measured by capture ELISA. In brief, Maxisorp microtitre plates (Nunc Laboratories Ltd., Denmark) were coated with 50 μl of capture Ab at 2.0 μg/ml (rat anti-mouse IL-5, IL-10 and IFN-γ from Pharmingen and rat anti-mouse IL-4 from Endogen, Mass.) in Carbonate-bicarbonate buffer by overnight incubation at 4° C. Wells were then washed with PBS-T four times and blocked by addition of 10% FCS in PBS (2 hours, 37° C.). 50 μl of culture supernatants and appropriate recombinant standards were then added to individual well in duplicate. For standard curves, recombinant IL-5 (0 to 5,000 pg/ml), IL-10 (0 to 25,000 pg/ml), IFN-γ (0 to 20,000 pg/ml) (Pharmingen, Calif.) and IL-4 (0 to 1,500 pg/ml) (Endogen, Mass.) were used in duplicate. […] Absorbance was measured at 405 nm using a UVMax automatic microplate reader. […]

splenocytes = assay: Cytokine assays of splenocyte culture supernatants (capture ELISA); assay type: cell-based, mice; settings: ConA (72 hrs)
Protocol: In flat-bottom 24-well culture plates (Corning), suspensions of 2.5×10^6 cells per ml were cultured with ConA (2 μg/ml) or without restimulation at 37° C. in supplemented RPMI 1640 medium as described above. 24, 72 and 120 hrs later, the cell cultures were then centrifuged, and the culture supernatants were harvested and kept frozen (−80° C.) until assayed. Pelleted cells were resuspended then stained with mAbs coupled to FITC or PE for immunofluorescent staining. IL-2, IL-4, IL-5, IL-10 and IFN-γ levels in supernatants from ConA-stimulated or unstimulated splenocytes were measured by capture ELISA. In brief, Maxisorp microtitre plates (Nunc Laboratories Ltd., Denmark) were coated with 50 μl of capture Ab at 2.0 μg/ml (rat anti-mouse IL-5, IL-10 and IFN-γ from Pharmingen and rat anti-mouse IL-4 from Endogen, Mass.) in Carbonate-bicarbonate buffer by overnight incubation at 4° C. Wells were then washed with PBS-T four times and blocked by addition of 10% FCS in PBS (2 hours, 37° C.). 50 μl of culture supernatants and appropriate recombinant standards were then added to individual well in duplicate. For standard curves, recombinant IL-5 (0 to 5,000 pg/ml), IL-10 (0 to 25,000 pg/ml), IFN-γ (0 to 20,000 pg/ml) (Pharmingen, Calif.) and IL-4 (0 to 1,500 pg/ml) (Endogen, Mass.) were used in duplicate. […] Absorbance was measured at 405 nm using a UVMax automatic microplate reader.

Human serum albumin [HSA]
percentage of the cells positive for both B7-2 and B220 (B220+ cells): 0.59±0.05 percentage
percentage of the cells positive for both B7-1 and B220 (B220+ cells; n=6): 0.95±0.07 percentage
IFN-g (splenocytes): 3358 ± 471 pg/mL
